Source: paper PMC10993414, “Water Quality Monitoring with the Multiplexed Assay MitoOxTox for Mitochondrial Toxicity, Oxidative Stress Response, and Cytotoxicity in AREc32 Cells” (Environmental Science & Technology, 2024)

Tests used:
AREc32 cells [1] = assay: Cytotoxicity (cell confluency) with IncuCyte S3 live cell imaging, MitoOxTox; details: AREc32, 24 h exposure
[2] = system: Nrf2-mediated oxidative stress response pathway (ARE) in AREc32 cells; assay: Oxidative stress response, luciferase reporter gene assay, MitoOxTox; details: effect concentration leading to induction ratio 1.5; AREc32, 24 h exposure
AREc32 cells [3] = assay: Cytotoxicity with ImageXpress high-content imaging, MitoOxTox; details: AREc32, 24 h exposure
[4] = experimental; ref PhysPropNCCT; cited from earlier work
[5] = experimental, ref Escher et al. 2000; cited from earlier work
[6] = system: mitochondrial membrane potential (MMP) in AREc32 cells; assay: Disruption of mitochondrial membrane potential (m-MPI red/green ratio), MitoOxTox; details: AREc32, 24 h exposure
[7] = ref Schwarzenbach et al. 1988; cited from earlier work
[8] = 10% reduction in cell viability
[9] = logarithm of IC10, Corning plates

Row | Compound | Cytotoxicity Incucyte IC10 (AREc32 cells [1]; [8]) | Cytotoxicity Incucyte log(IC10 (M)) (AREc32 cells [1]; [9]) | Oxidative stress response ECIR1.5 [2] | Cytotoxicity ImageExpress IC10 (AREc32 cells [3]; [8]) | Cytotoxicity ImageExpress log(IC10 (M)) (AREc32 cells [3]; [9]) | log Kow [L/L] [4] | log Dlipw (pH 7.4) [5] | MMP inhibition EC10 ([6]; 10% reduction of MMP) | MMP inhibition log(EC10 (M)) ([6]; logarithm of EC10) | pKa (Acid) [7]
1 | Cc1cc([N+](=O)[O-])cc([N+](=O)[O-])c1O | 76.4 µM | -4.12 M | > 1.26 mM | 117 µM | -3.93 M | 2.13 L/L | 2.35 | 6.01 µM | -5.22 M | –
2 | O=[N+]([O-])c1ccc(O)c([N+](=O)[O-])c1 [2,4-Dinitrophenol] | – | – | – | – | – | – | – | – | – | 3.9
